Results on 110 compounds are retold here after PubChem BioAssay AID652039 (The Scripps Research Institute Molecular Screening Center, 2013).

Chains of the proteins cited; added tags and fusions are not shown.
UniProt P49862, whole entry: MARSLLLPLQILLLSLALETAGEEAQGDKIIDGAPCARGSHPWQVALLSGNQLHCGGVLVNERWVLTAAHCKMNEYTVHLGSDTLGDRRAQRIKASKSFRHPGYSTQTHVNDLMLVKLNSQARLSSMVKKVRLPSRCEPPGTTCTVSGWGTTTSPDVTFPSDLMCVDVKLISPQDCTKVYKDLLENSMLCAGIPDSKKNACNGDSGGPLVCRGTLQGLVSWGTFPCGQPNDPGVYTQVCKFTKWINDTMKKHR

This is a selection; strong and weak results do not stand in their true shares. Activity calls are given as the source filed them.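 How the source made its calls: active means activation above the mean of all tested compounds plus 3 SD, computed per campaign excluding outliers beyond control limits (cut at about 13% in these data); inactive means the rest.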

The test deals with Kallikrein-7 (Homo sapiens) (UniProt P49862). Nature of the test: activation of human kallikrein-7 proenzyme – biochemical, fluorescence intensity, primary screen (AID 652039). The settings on record: purified proKLK7, EDANS-DABCYL substrate fluorescence; at 7 µM; hits give high values; 100% is mature enzyme control, 0% vehicle.
Consider `Cn1c(=O)[nH]cc(N(CCCl)CCCl)c1=O`, for which the activation is inactive: 0.06%.
For `CN(C)c1ccc(C(=O)NCC2(N3CCCCC3)CCCCC2)cc1` the value was inactive: -0.03%; for `O=C(NCC1(N2CCCCC2)CCCCC1)c1ccco1`, inactive: 0.2%.
For `CC(C)(C)n1nnnc1C(c1ccnc2ccccc12)N1CCC(n2c(=O)[nH]c3ccccc32)CC1` (stereo not given) the value was inactive: 0.38%.
For `CCN1CCC(Nc2cccc(F)c2)CC1`, the activation is inactive: 0.21%.
For `COc1ccc(C(c2nnnn2C2CCCCC2)N2CCC(n3c(=O)[nH]c4ccccc43)CC2)cc1` (stereo not given) the value was inactive: 0.83%; for `Cc1ccccc1NC1(C#N)CCN(Cc2ccccc2)CC1`, inactive: 0.14%.
With `Fc1ccccc1NC1CCN(Cc2ccccc2)CC1`, the activation was inactive: -0.83%.
The result for `Cc1ccc(C(=O)NCC2(N3CCCCC3)CCCCC2)o1` reads inactive: -0.42%; that for `Cc1ccc(NC2(C#N)CCN(Cc3ccccc3)CC2)cc1`, inactive: 0.18%; that for `CCC(c1nnnn1C1CCCCC1)N1CCC(n2c(=O)[nH]c3ccccc32)CC1` (stereo not given), inactive: 0.98%.
For `CC(=O)N(c1ccccc1)C1CCNCC1` the value was inactive: 0.08%.
For `COc1cccc(C(c2nnnn2C2CCCCC2)N2CCC(n3c(=O)[nH]c4ccccc43)CC2)c1OC` (stereo not given) the value was inactive: 0.24%; for `O=c1[nH]c2ccccc2n1C1CCN(C(c2ccnc3ccccc23)c2nnnn2C2CCCCC2)CC1` (stereo not given), inactive: 0.1%; for `COc1cc(OC)cc(C(=O)NCC2(N3CCCCC3)CCCCC2)c1`, inactive: -0.61%.
For the compound `CN1CCC(Nc2ccc(Cl)cc2)CC1`, the activation is inactive: -0.12%.
For `COc1cccc(C(=O)N(c2cc(C)cc(C)c2)C2CCN(C(=O)OC(C)(C)C)CC2)c1` the value was inactive: -0.15%; for `COc1cccc(C(c2nnnn2C2CCCC2)N2CCC(n3c(=O)[nH]c4ccccc43)CC2)c1OC` (stereo not given), inactive: 0.79%.
As for `COc1cc(OC)cc(C(=O)NCC2(N3CCOCC3)CCCCC2)c1`, the activation is inactive: -0.08%.
For `CCC(CO)(C(=O)OC1CN2CCC1CC2)c1ccccc1` (stereo not given) the value was inactive: -0.03%; for `NN(c1ccccc1)C1CCN(CCc2ccccc2)CC1`, inactive: 0.15%.
On to `O=C(O)C1(Nc2ccccc2)CCN(Cc2ccccc2)CC1`, for which the activation is inactive: -0.36%.
The result for `CC(C)(C)OC(=O)N1CCC(Nc2ccccc2)CC1` reads inactive: -0.02%.
For `CCCOc1ccc(C(=O)NCC2(N(C)C)CCCCC2)cc1`, the activation was inactive: 0.57%.
The result for `O=c1[nH]c2ccccc2n1C1CCN(C(c2cc3ccccc3o2)c2nnnn2C2CCCC2)CC1` (stereo not given) reads inactive: 0.69%.
The result for `CN1CCC(Nc2ccc(F)c(Cl)c2)CC1` reads inactive: -0.28%.
In the case of `CCOc1ncccc1C(=O)NCC1(N2CCOCC2)CCCCC1`, the activation was inactive: 0.66%.
`O=c1[nH]c2ccccc2n1C1CCN(C(c2cccs2)c2nnnn2C2CCCC2)CC1` (stereo not given): the activation was inactive: -0.16%.
For `O=C(OC1CN2CCC1CC2)C1c2ccccc2C=Cc2ccccc21` (stereo not given) the value was inactive: -0.22%; for `CCCCn1nnnc1C(c1cccc(OC)c1OC)N1CCC(n2c(=O)[nH]c3ccccc32)CC1` (stereo not given), inactive: 0.81%; for `COc1cccc(C(c2nnnn2C(C)(C)C)N2CCC(n3c(=O)[nH]c4ccccc43)CC2)c1OC` (stereo not given), inactive: -0.38%.
For `CCOC(=O)N1CCC(Nc2ccc(C)cc2)CC1` the value was inactive: -0.25%.
The result for `N/C(=N\O)c1c(N)no[n+]1[O-]` reads inactive: 0.03%; that for `NC(=O)C1(Nc2ccccc2)CCN(Cc2ccccc2)CC1`, inactive: 0.08%; that for `O=c1[nH]c2ccccc2n1C1CCN(C(c2cccs2)c2nnnn2C2CCCCC2)CC1` (stereo not given), inactive: 0.2%.
For `O=c1[nH]c2ccccc2n1C1CCN(C(c2ccnc3ccccc23)c2nnnn2C2CCCC2)CC1` (stereo not given), the activation was inactive: 0.2%.
The result for `COc1ccc(C(=O)NCC2(N3CCOCC3)CCCCC2)cc1OC` reads inactive: 0.63%; that for `COc1cc(C(=O)NCC2(N3CCOCC3)CCCCC2)cc(OC)c1C`, inactive: -0.62%.
For `CCCCn1nnnc1C(c1ccccc1)N1CCC(n2c(=O)[nH]c3ccccc32)CC1` (stereo not given) the value was inactive: 0.03%; for `O=C(NCC1(N2CCOCC2)CCCCC1)c1cc(Br)ccc1Cl`, inactive: 0.3%.
For `CC(C)(C)n1nnnc1C(c1cccc2ccccc12)N1CCC(n2c(=O)[nH]c3ccccc32)CC1` (stereo not given) the value was inactive: -0.08%; for `CN(C)C1(CNC(=O)c2cccc(C#N)c2)CCCCC1`, inactive: -0.11%.
Turning to `Cc1cc(N(CCCl)CCCl)ccc1C=O`, the activation was inactive: -0.17%.
The result for `O=c1[nH]c2ccccc2n1C1CCN(C(c2ccccc2)c2nnnn2C2CCCC2)CC1` (stereo not given) reads inactive: 0.94%; that for `CCCN1CCC(Nc2cc(OC)cc(OC)c2)CC1`, inactive: 0.31%.
The result for `c1ccc(CN2CCC(Nc3ccccc3)CC2)cc1` reads inactive: 0.27%; that for `C/C(N)=N\P(=O)(Oc1ccccc1)Oc1ccccc1`, inactive: -0.05%.
For `N#Cc1ccc(C(=O)NCC2(N3CCCCC3)CCCCC2)cc1` the value was inactive: -0.33%; for `CC(C)(C)OC(=O)N1CCC(N(C(=O)c2ccccc2)c2ccc(Cl)cc2)CC1`, inactive: 1.01%; for `O=C(NCC1(N2CCOCC2)CCCCC1)c1cc(=O)[nH]c2ccccc12`, inactive: 0.75%.
Regarding `COc1cc(C(=O)NCC2(N3CCCCC3)CCCCC2)ccc1OC(F)F`, the activation was inactive: -0.3%.
The result for `CCCCn1nnnc1C(c1cccc2ccccc12)N1CCC(n2c(=O)[nH]c3ccccc32)CC1` (stereo not given) reads inactive: 0.03%.
For `CC(C)c1ccc(C(=O)NCC2(N3CCOCC3)CCCCC2)cc1` the value was inactive: -0.18%; for `COc1ccc(NC2CCN(C(=O)OC(C)(C)C)CC2)cc1`, inactive: -0.13%.
The result for `CN1CCN(CCOC(=O)C(O)(c2ccccc2)c2ccccc2)CC1` reads inactive: -0.81%.
For the compound `O=C(NCC1(N2CCCCC2)CCCCC1)c1cccc(C(F)(F)F)c1`, the activation is inactive: 0.07%.
In the case of `N#CC1(Nc2ccccc2)CCN(CCc2ccccc2)CC1`, the activation is inactive: 0.2%.
`O=c1[nH]c2ccccc2n1C1CCN(C(c2ccccc2OC(F)(F)F)c2nnnn2C2CCCC2)CC1` (stereo not given): the activation was inactive: 0.43%.
For `CCN1CCC(Nc2ccc(Cl)cc2)CC1` the value was inactive: -0.38%; for `CSc1ccc(C(=O)NCC2(N3CCOCC3)CCCCC2)cc1`, inactive: 0.1%; for `O=C(NCC1(N2CCCCC2)CCCCC1)c1cccc([N+](=O)[O-])c1`, inactive: -0.14%.
The result for `O=C(NCC1(N2CCCCC2)CCCCC1)c1ccc(OC(F)F)cc1` reads inactive: -0.07%; that for `CC(C)(C)n1nnnc1C(c1ccccc1OC(F)(F)F)N1CCC(n2c(=O)[nH]c3ccccc32)CC1` (stereo not given), inactive: -0.01%.
The result for `COc1ccc(C(c2nnnn2C2CCCC2)N2CCC(n3c(=O)[nH]c4ccccc43)CC2)cc1` (stereo not given) reads inactive: 0.37%; that for `CCCOc1ccc(C(=O)NCC2(N(C)C)CCCCC2)cc1OC`, inactive: -0.56%; that for `Cc1ccc(C(=O)NCC2(N(C)C)CCCCC2)o1`, inactive: 0.15%.
With `O=C(NCC1(N2CCCCC2)CCCCC1)c1cncc(Br)c1`, the activation is inactive: 0.73%.
The result for `CN1CCC(Nc2cccc(F)c2)CC1` reads inactive: 0.5%; that for `CCC(c1nnnn1C(C)(C)C)N1CCC(n2c(=O)[nH]c3ccccc32)CC1` (stereo not given), inactive: -0.04%; that for `O=C(NCC1(N2CCOCC2)CCCCC1)c1cc(F)c(F)cc1Cl`, inactive: -0.32%.
For `COc1cc(OC)c(C(=O)NCC2(N(C)C)CCCCC2)cc1OC` the value was inactive: -0.44%.
For `CCCCn1nnnc1C(c1ccnc2ccccc12)N1CCC(n2c(=O)[nH]c3ccccc32)CC1` (stereo not given) the value was inactive: -0.01%; for `CC(C)c1ccc(NC2CCN(C(=O)OC(C)(C)C)CC2)cc1`, inactive: 0.22%.
Consider `CN(C)c1cccc(C(=O)NCC2(N3CCCCC3)CCCCC2)c1`, for which the activation is inactive: 2.43%.
Turning to `COC(=O)C1(Nc2ccccc2)CCN(Cc2ccccc2)CC1`, the activation was inactive: 0.68%.
`COc1ccc(CN(CCCl)CCCl)cc1Cl`: the activation was inactive: 0.3%.
Turning to `COc1ccc(Cl)cc1C(=O)NCC1(N2CCOCC2)CCCCC1`, the activation is inactive: 0.24%.
For `O=c1[nH]c2ccccc2n1C1CCN(C(c2cc3ccccc3o2)c2nnnn2C2CCCCC2)CC1` (stereo not given) the value was inactive: -0.78%; for `O=C(OC1CN2CCC1CC2)C1c2ccccc2Oc2ccccc21` (stereo not given), inactive: 0.37%; for `N#CC1(Nc2ccccc2)CCN(Cc2ccccc2)CC1`, inactive: 0.42%.
The result for `O=C(NCC1(N2CCCCC2)CCCCC1)c1ccc(Cl)s1` reads inactive: 0.65%.
For `CCCCn1nnnc1C(c1ccc(OC)cc1)N1CCC(n2c(=O)[nH]c3ccccc32)CC1` (stereo not given) the value was inactive: 1.47%; for `CCOC(=O)N1CCC(Nc2ccc(OC)cc2)CC1`, inactive: -0.32%.
On to `Cc1cc(C)cc(N(C(=O)c2ccccc2)C2CCN(C(=O)OC(C)(C)C)CC2)c1`, for which the activation was inactive: 0.38%.
Consider `O=c1[nH]c2ccccc2n1C1CCN(C(c2ccccc2OC(F)(F)F)c2nnnn2C2CCCCC2)CC1` (stereo not given), for which the activation is inactive: 0.04%.
The result for `O=C(NCC1(N2CCCCC2)CCCCC1)c1ccc(Cl)nc1` reads inactive: 0.51%; that for `O=C(NCC1(N2CCOCC2)CCCCC1)c1cc2ccccc2o1`, inactive: 0.09%.
For `Cc1cccc(NC2(C#N)CCN(Cc3ccccc3)CC2)c1` the value was inactive: 0.08%; for `CSc1ccccc1C(=O)NCC1(N2CCCCC2)CCCCC1`, inactive: -0.57%; for `CCC(c1nnnn1C1CCCC1)N1CCC(n2c(=O)[nH]c3ccccc32)CC1` (stereo not given), inactive: -0.41%.
For `CC(C)(C)OC(=O)N1CCC(N(C(=O)c2ccccc2)c2ccc(F)cc2)CC1`, the activation was inactive: -0.31%.
For `COc1ccc(C(=O)NCC2(N3CCCCC3)CCCCC2)c(OC)c1OC` the value was inactive: -0.01%; for `COc1ccc(C(=O)NCC2(N3CCCCC3)CCCCC2)cc1`, inactive: -0.5%; for `CCCCn1nnnc1C(c1cccs1)N1CCC(n2c(=O)[nH]c3ccccc32)CC1` (stereo not given), inactive: -0.13%.
The result for `O=C(NCC1(N2CCCCC2)CCCCC1)c1cccs1` reads inactive: 0.26%; that for `CCCCn1nnnc1C(CC)N1CCC(n2c(=O)[nH]c3ccccc32)CC1` (stereo not given), inactive: 0.91%.
Turning to `O=C(NCC1(N2CCCCC2)CCCCC1)c1ccc(=O)[nH]c1`, the activation was inactive: -0.14%.
For `COc1cc(C(=O)NCC2(N(C)C)CCCCC2)ccc1OC(F)F` the value was inactive: 0.29%; for `CCOC(=O)N1CCC(Nc2cccc(C)c2)CC1`, inactive: -0.42%; for `O=c1[nH]c2ccccc2n1C1CCN(C(c2cccc3ccccc23)c2nnnn2C2CCCC2)CC1` (stereo not given), inactive: -0.3%.
The result for `O=c1[nH]c2ccccc2n1C1CCN(C(c2ccccc2)c2nnnn2C2CCCCC2)CC1` (stereo not given) reads inactive: -0.08%; that for `CCOC(=O)N1CCC(Nc2ccc(F)cc2)CC1`, inactive: -0.31%.
For `COc1ccc(NC2CCN(CCc3ccccc3)CC2)c(OC)c1` the value was inactive: -0.89%; for `O=C(NCC1(N2CCCCC2)CCCCC1)c1ccc(F)cc1`, inactive: -0.14%.
`CCCCOc1ccc(C(=O)NCC2(N3CCOCC3)CCCCC2)cc1`: the activation was inactive: -0.56%.
The result for `O=P1(N(CCCl)CCCl)SCCCS1` reads inactive: 0.33%.
The result for `CCCCn1nnnc1C(c1cc2ccccc2o1)N1CCC(n2c(=O)[nH]c3ccccc32)CC1` (stereo not given) reads inactive: 0.14%; that for `O=C1CCN(Cc2ccccc2)CC1`, inactive: 0.64%.
The result for `CC(C)(C)n1nnnc1C(c1ccccc1)N1CCC(n2c(=O)[nH]c3ccccc32)CC1` (stereo not given) reads inactive: 0.27%.
As to `CCOc1ccc(C)cc1CN(CCCl)CCCl`, the activation is inactive: -0.2%.
